Data reported in patent US20170182020A1.

Details: remifentanil injection formulations containing these colorants

Substance | Effect of colorant on survival rate of the remifentanil in stability test
riboflavin phosphate ester sodium | greatly lowered the survival rate of the remifentanil
uranine | greatly lowered the survival rate of the remifentanil
